## Binding of CDR-mutated scFvs to a peptide of the spike HR2 region

Data: MIT Lincoln Laboratory AlphaSeq set, Engelhart et al. 2022, doi:10.1038/s41597-022-01779-4, as distributed in FLAb.

Binding partner: SARS-CoV-2 spike HR2 peptide, sequence PDVDLGDISGINAS.

Parent: Ab-95, a human scFv built as VH, a 15-residue (Gly4Ser)3 linker, VL. Only the CDRs of the light chain vary.
VH: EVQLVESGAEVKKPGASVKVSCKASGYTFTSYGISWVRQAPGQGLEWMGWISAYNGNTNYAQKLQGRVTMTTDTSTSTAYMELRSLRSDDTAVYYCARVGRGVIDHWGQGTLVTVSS
VL: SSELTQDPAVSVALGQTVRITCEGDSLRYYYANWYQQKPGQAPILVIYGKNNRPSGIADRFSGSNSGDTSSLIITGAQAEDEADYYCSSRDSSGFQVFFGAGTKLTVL

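Phage display of a naive human antibody library on the peptide gave the parent. The library (AAYL52) carries one to three amino acid substitutions per variant, with no insertions or deletions. The assay is AlphaSeq: two haploid yeast populations carry antibody and antigen on their surface. Binding brings cells together so that they mate, and sequencing counts the barcode pairs among the diploids. Read counts were normalised to the haploid input and turned into Kd by a linear fit to BCL2-family pairs of known affinity, for each replicate. There are three technical replicates.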

Changes read parent residue, position, new residue, counted from the first residue of the VL shown. Numbers give log10(Kd / nM), so 0 is 1 nM and 3 is 1 µM. Smaller is tighter. Where no diploid with the target was found in that replicate, the entry reads "n.d.": below detection, most likely a poor binder, though not proof of it. Three control strains display no target. For library AAYL52, 28% of the pairings with them gave a signal, with a median of 3.91 and one signal in twenty below 2.90, so weak values seen in few replicates may be background. For each scFv, signals with the empty controls are counted beside the result, with their mean in brackets. For reference, the parent read 2.31 as the reference entry and 2.25 as a member of this library.

| changes | log10 Kd, replicates | empty controls |
|---|---|---|
| E23G/Y30S/A32M | 2.46 2.18 2.02 | 4/9 (4.42) |
| Y29N/Y31W/G49K | 4.48 n.d. n.d. | 3/9 (3.51) |
| K50C/S92W/Q96L | 3.73 3.91 2.87 | 5/9 (4.15) |
| Y29C/N51P/F95I | 4.31 4.13 n.d. | 5/9 (3.72) |
| S26G/L27F/F98T | 3.65 4.31 4.85 | 4/9 (4.23) |
| Y31P/D91A/G94C | 2.24 2.25 1.87 | 6/9 (4.55) |
| Y29F/S55G | 2.40 2.79 1.90 | 3/9 (3.58) |
| E23K/Y29A/Y31L | 1.75 1.70 1.84 | 0/9 |
| N51W/N52G/S93F | 2.98 5.63 n.d. | 4/9 (3.55) |
| G24P/D25R/L27M | n.d. n.d. n.d. | 1/9 (3.56) |
| E23Q/R53G | 2.81 2.53 2.41 | 1/9 (4.38) |
| K50L/N52P/F95H | 4.13 n.d. n.d. | 3/9 (4.39) |
| N33L/Q96T/F98V | 3.48 4.99 n.d. | 4/9 (4.17) |
| Y30D/N33P/G94L | n.d. n.d. n.d. | 4/9 (5.01) |
| S26E/L27K/R28F | n.d. 5.52 n.d. | 0/9 |
| Y30Q/A32G/G94Q | 3.34 3.26 n.d. | 3/9 (3.85) |
| A32Q/F95N/V97Y | n.d. 4.42 n.d. | 2/9 (4.07) |
| P54M/S93G/F95K | 3.56 2.46 n.d. | 2/9 (4.16) |
| Y29I/P54A/D91L | n.d. 3.67 4.25 | 3/9 (3.96) |
| S26V/L27H/Y31E | 2.51 2.47 2.12 | 4/9 (4.00) |
| K50T/V97D/F98Q | 2.85 n.d. 3.44 | 0/9 |
| R53A/S93E/F98S | 3.56 3.31 2.96 | 1/9 (3.40) |
| S89R/G94S/F95P | 2.47 2.62 2.32 | 2/9 (3.19) |
| E23R/S55Q/S89I | 3.10 2.93 2.33 | 3/9 (3.99) |
| S26Y/R28F/R90G | n.d. n.d. 4.13 | 4/9 (3.35) |
| D25M/R90Y | 2.69 2.48 1.47 | 2/9 (3.25) |
| G24K/Y29A | 2.88 2.35 2.39 | 9/9 (4.18) |
| G24R/D25Y/N33S | 3.52 n.d. n.d. | 2/9 (4.01) |
| A32S/S88F/F95V | n.d. n.d. n.d. | 1/9 (3.69) |
| Y31R/K50W/R53Y | 4.34 n.d. 2.91 | 4/9 (3.54) |
| G24C/P54G/S93M | 3.86 n.d. n.d. | 1/9 (4.14) |
| R28A/Y30W/S92M | 2.96 3.72 2.83 | 2/9 (4.79) |
| N33S/N52R/R53Q | n.d. 4.23 4.19 | 7/9 (4.09) |
| A32P/K50T/S88V | 2.98 3.18 3.65 | 1/9 (4.26) |
| S55Q/S88E/S93P | 2.15 2.18 2.23 | 4/9 (3.69) |
| D25P/Y31A/R53L | 1.95 1.95 1.34 | 2/9 (3.53) |
| D91V/S93V/F98G | 2.31 3.24 n.d. | 1/9 (2.09) |
| E23P/Y30V/V97M | 4.26 4.97 4.22 | 4/9 (4.47) |
| S26W/N51P/N52K | n.d. 2.71 2.53 | 1/9 (4.11) |
| S26H/R53T | 2.91 3.50 3.99 | 1/9 (4.45) |
| Y29G/P54C/S55W | 2.77 2.60 2.62 | 0/9 |
| E23L/S88F/G94Y | 3.38 4.06 n.d. | 2/9 (4.31) |
| D25M/S26A/S55Y | 2.40 2.71 2.16 | 4/9 (4.14) |
| S26H/N33H | n.d. 4.46 n.d. | 3/9 (4.35) |
| D25M/Q96G/V97G | 2.85 3.07 3.71 | 1/9 (3.80) |
| G49D/G94W | 3.69 3.83 n.d. | 2/9 (3.54) |
| Y30I/A32I | 5.40 n.d. n.d. | 0/9 |
| S89Y | 2.38 2.58 1.94 | 2/9 (4.69) |